Columns and labels:
[1] = molecular target: T1, human Smoothened receptor (Homo sapiens, UniProt Q99835); assay: Saturation of binding of 3H-(7d) to membranes of HEK-hSmo cells; conditions: tested form: HCl
[2] = molecular target: T1, human Smoothened receptor; assay: Kinetics of association of 3H-(7d) with membranes of HEK-hSmo cells; conditions: tested form: HCl; for Half-association time: 0.35 nM radioligand

Amino acid sequences for entries named in this document (tags omitted). Residues count along the entry.
UniProt Q99835, 28-787 limits assumed: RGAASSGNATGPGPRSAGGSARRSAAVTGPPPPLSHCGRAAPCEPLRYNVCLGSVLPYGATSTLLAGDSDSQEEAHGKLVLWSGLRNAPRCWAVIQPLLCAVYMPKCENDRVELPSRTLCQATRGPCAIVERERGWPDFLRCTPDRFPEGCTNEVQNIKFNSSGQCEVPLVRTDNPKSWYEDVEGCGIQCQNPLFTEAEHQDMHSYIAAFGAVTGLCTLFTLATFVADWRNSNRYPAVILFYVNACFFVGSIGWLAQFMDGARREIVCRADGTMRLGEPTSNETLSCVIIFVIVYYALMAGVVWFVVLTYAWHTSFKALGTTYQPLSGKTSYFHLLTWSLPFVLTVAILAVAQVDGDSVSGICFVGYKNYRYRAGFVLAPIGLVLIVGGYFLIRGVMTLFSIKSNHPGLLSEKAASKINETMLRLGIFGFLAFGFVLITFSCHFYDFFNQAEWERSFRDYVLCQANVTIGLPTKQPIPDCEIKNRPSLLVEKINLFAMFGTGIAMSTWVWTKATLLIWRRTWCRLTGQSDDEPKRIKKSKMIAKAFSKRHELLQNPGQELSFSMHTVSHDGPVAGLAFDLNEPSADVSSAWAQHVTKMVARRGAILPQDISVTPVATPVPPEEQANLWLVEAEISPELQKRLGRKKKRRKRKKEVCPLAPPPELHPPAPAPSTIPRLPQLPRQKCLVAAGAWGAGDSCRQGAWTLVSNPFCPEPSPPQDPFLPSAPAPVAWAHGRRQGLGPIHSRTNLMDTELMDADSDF

Bmax of specific binding ([1]; HEK-hSmo membranes (2 μg of proteins)): 1086±91 cpm
Kd ([1]; read-out: Kd of specific binding, HEK-hSmo membranes, 3 hours at 37° C., nonspecific with 1 μM GDC-0449): 0.3 nM
Half-association time ([2]; 25° C.): 71 min
Time of incubation to reach equilibrium of specific binding ([2]; 25° C., not reached): > 5 h
Half-association time ([2]; 37° C.): 33 min
Time of incubation to reach equilibrium of specific binding ([2]; 37° C.): 3 h
Nonspecific binding ([2]; beyond 5 minutes of incubation, defined with 0.1 μM of GDC0449): 0.4 % of the total binding
SMILES: [3H]C(c1ccccc1)C([3H])c1ccc(C(=O)Nc2cc(NC(=N)NC(=O)c3cc(OC)c(OC)c(OC)c3)ccc2C)cc1 (stereo not shown)
